The target of experiment [1] is T1, P2X7 (Homo sapiens (Human), UniProt Q99572). The experiment can be described thus: Ca2+ flux (FLIPR) in 1321N1 cells expressing recombinant human P2X7. The experiment is classed as cell-based. The note with it: FLIPR (human) IC50 (μM), Table 2, additional runs; 250 μM BzATP.
Experiment [2] concerns the target T2, rat P2X7 (Rattus norvegicus (Rat), UniProt Q64663). The experiment can be described thus: Ca2+ flux (FLIPR) in 1321N1 cells expressing recombinant rat P2X7. The experiment is classed as cell-based. The note with it: FLIPR (rat) IC50 (μM), Table 2, additional runs; 250 μM BzATP. (In general: A change in cytosolic calcium serves as a functional read-out for many receptors and channels.)

By UniProt entry, the sequences of proteins in these tests, tags left out. Where a name states a change or a piece, a line headed by the entry shows the natural chain unless it says otherwise.
UniProt Q99572: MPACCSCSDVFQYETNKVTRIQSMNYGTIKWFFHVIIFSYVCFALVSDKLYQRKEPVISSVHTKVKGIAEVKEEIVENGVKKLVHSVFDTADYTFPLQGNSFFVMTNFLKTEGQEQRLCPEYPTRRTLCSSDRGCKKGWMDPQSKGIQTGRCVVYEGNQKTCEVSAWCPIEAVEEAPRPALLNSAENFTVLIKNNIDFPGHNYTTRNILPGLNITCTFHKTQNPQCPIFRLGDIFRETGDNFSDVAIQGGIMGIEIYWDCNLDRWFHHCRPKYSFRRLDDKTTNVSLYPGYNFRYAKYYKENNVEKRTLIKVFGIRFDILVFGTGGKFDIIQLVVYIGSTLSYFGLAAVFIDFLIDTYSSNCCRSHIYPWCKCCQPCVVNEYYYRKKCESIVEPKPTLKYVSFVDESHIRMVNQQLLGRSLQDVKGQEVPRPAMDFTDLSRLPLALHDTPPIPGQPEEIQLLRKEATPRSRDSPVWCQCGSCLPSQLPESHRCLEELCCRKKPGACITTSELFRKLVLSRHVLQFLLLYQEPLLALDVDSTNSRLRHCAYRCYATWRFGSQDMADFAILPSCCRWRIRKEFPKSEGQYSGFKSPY
UniProt Q64663: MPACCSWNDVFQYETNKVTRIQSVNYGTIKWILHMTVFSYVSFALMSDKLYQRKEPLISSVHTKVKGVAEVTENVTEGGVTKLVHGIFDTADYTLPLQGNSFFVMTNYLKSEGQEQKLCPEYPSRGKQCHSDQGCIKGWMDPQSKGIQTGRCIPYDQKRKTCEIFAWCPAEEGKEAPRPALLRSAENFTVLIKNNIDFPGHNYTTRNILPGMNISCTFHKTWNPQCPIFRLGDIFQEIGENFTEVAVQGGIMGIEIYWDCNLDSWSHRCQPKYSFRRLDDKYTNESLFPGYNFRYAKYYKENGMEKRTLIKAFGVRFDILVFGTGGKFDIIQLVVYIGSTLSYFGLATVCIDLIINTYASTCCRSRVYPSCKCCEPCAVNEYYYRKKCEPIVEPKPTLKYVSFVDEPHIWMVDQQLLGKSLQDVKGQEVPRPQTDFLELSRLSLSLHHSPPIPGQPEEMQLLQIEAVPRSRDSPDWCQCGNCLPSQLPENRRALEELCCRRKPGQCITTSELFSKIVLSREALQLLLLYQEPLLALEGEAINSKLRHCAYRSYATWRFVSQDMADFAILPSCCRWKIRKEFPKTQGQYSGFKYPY

Experiment [3] deals with T1, P2X7. The experiment can be described thus: Radioligand binding, recombinant human P2X7-1321N1 cell membranes, tritiated A-804598. The procedure: P2X7 Antagonism in Recombinant Human P2X7 Cells or Recombinant Rat P2X7 Cells: (a) Ca^2+ Flux and (b) Radioligand Binding
human or rat P2X7-1321N1 cells were collected and frozen @−80° C. On the day of the experiment, cell membrane preparations were made according to standard published methods. The total assay volume was 100 μl:10 μl compound (10×)+(b) 40 μl tracer (2.5×)+50 μl membrane (2×). The tracer used for the assay was tritiated A-804598. The compound can be prepared as described in the literature. […] The assay was terminated by filtration (GF/B filters pre-soaked with 0.3% PEI) and washed with washing buffer (Tris-HCl 50 mM). The IC50 generated in the binding assay was corrected for tracer concentration and affinity of the tracer to derive at the affinity (Ki) of the test compounds. […] Data are analyzed and graphed on Graphpad Prism 5.

Experiment [4] concerns the target T2, rat P2X7. The experiment can be described thus: Radioligand binding, recombinant rat P2X7-1321N1 cell membranes, tritiated A-804598.

As a reminder, the IC50 is the concentration at which inhibition is half-maximal. As for `O=C(c1cccc(C(F)(F)F)c1Cl)N1[C@H]2CCC[C@@H]1c1nnc(-c3ccccn3)n1C2` (single isomer, unassigned) [Example 32, (6S*,10R*)-11-{[2-Chloro-3-(trifluoromethyl)phenyl]carbonyl}-3-pyridin-2-yl-5,6,7,8,9,10-hexahydro-6,10-epimino[1,2,4]triazolo[4,3-a]azocine], the IC50 in experiment [1] was 1.51 µM; in experiment [2], 2.11 µM.
The term Ki denotes a dissociation constant, usually derived from enzyme kinetics or from competition with a known ligand. For `O=C(c1cccc(C(F)(F)F)c1Cl)N1[C@H]2CCC[C@@H]1c1nnc(-c3ccccn3)n1C2` (single isomer, unassigned) [Example 33, (6R*,10S*)-11-{[2-Chloro-3-(trifluoromethyl)phenyl]carbonyl}-3-pyridin-2-yl-5,6,7,8,9,10-hexahydro-6,10-epimino[1,2,4]triazolo[4,3-a]azocine], the Ki in experiment [3] worked out at 11.3 nM; in experiment [4] it was 2.5 nM. In addition, the 50% inhibitory concentration (IC50) is 0.0115 µM in experiment [1] and 0.0078 µM in experiment [2].
Take `O=C(c1cccc(C(F)(F)F)c1Cl)N1[C@H]2CCC[C@@H]1c1nnc(-c3ccc(F)cn3)n1C2` (single isomer, unassigned) [Example 11, (6S*,10R*)-11-{[2-Chloro-3-(trifluoromethyl)phenyl]carbonyl}-3-(5-fluoropyridin-2-yl)-5,6,7,8,9,10-hexahydro-6,10-epimino[1,2,4]triazolo[4,3-a]azocine]: the 50% inhibitory concentration (IC50) in experiment [1] was found to be 6.12 µM.

(Values after patent US9540388B2, “P2X7 modulators” (Janssen Pharmaceutica NV, priority 2013, dated 2017).)
